How the values were obtained:
Conditions in all cases: inhibitor (Afatinib 13 nM, Gefitinib 37 nM or Neratinib 92 nM) 2 hours prior to EGF 100 ng/ml 10 minutes
pp38 = assay: AMMP pp38 assay, A431 cells
pHER3 = assay: AMMP pHER3 assay, A431 cells
pMEK1 = assay: AMMP pMEK1 assay, A431 cells
pERK1/2 = assay: AMMP pERK1/2 assay, A431 cells

With `COc1cc2ncnc(Nc3ccc(F)c(Cl)c3)c2cc1OCCCN1CCOCC1` [gefitinib, Gefitinib] the “EGF stimulated phosphorylation of p38” value (pp38) was “no significant effect”, the “EGF stimulated phosphorylation of HER3” value (pHER3) was “no significant effect” and the “EGF stimulated phosphorylation of HER3” value (pHER3; listed as gefinitib) was “little efficacy”. The “EGF stimulated phosphorylation of MEK1” value (pMEK1) was “no significant effect” and the “EGF stimulated phosphorylation of ERK1/2” value (pERK1/2) was “no significant effect”.

Reference: US20150057180A1, “Methods and Kits for Analyzing Biomarkers in a Signal Transduction Pathway” (BioScale, Inc., priority 2012, published 2015)
